Values of other authors as cited in US20230310455A1, “COMBINATION THERAPIES FOR TREATMENT OF HER2 CANCER” (Genentech, Inc., priority 2020, published 2023).

Amino acid sequences for entries named in this document (tags omitted).
UniProt P03372, whole entry: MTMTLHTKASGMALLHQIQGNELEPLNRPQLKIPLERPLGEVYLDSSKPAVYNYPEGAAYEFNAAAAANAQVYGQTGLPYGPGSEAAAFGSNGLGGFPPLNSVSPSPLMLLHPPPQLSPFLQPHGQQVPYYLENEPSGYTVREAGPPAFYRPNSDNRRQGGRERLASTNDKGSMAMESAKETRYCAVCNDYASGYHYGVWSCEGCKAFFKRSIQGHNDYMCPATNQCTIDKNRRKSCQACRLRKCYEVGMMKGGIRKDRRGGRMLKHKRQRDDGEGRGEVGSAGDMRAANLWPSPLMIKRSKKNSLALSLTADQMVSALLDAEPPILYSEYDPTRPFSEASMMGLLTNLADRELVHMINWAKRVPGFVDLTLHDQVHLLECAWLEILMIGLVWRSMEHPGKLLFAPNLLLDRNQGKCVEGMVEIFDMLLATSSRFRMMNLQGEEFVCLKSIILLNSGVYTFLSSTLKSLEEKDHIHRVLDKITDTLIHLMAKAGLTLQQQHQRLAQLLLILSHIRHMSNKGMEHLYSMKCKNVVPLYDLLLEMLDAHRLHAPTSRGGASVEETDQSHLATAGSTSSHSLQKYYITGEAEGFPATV

Target: ER (Homo sapiens, UniProt P03372)
Conditions: greater than tamoxifen; cited from earlier work

## C[C@]12CC[C@@H]3c4ccc(O)cc4C[C@@H](CCCCCCCCC[S+]([O-])CCCC(F)(F)C(F)(F)F)[C@H]3[C@@H]1CC[C@@H]2O (stereo partly drawn) [fulvestrant, (7α,17β)-7-{9-[(4,4,5,5,5-pentafluoropentyl)sulfinyl]nonyl}estra-1,3,5(10)-triene-3,17-diol]
  affinity for the ER relative to that of tamoxifen: approximately 100 fold
